In PubChem BioAssay AID720648 (The Scripps Research Institute Molecular Screening Center, 2013) one finds inhibition data, which are given here for 99 compounds.

Chains of the proteins cited; added tags and fusions are not shown. Lines headed by an entry give the natural chain unless they say otherwise; changes in a name come on top.
UniProt P78536: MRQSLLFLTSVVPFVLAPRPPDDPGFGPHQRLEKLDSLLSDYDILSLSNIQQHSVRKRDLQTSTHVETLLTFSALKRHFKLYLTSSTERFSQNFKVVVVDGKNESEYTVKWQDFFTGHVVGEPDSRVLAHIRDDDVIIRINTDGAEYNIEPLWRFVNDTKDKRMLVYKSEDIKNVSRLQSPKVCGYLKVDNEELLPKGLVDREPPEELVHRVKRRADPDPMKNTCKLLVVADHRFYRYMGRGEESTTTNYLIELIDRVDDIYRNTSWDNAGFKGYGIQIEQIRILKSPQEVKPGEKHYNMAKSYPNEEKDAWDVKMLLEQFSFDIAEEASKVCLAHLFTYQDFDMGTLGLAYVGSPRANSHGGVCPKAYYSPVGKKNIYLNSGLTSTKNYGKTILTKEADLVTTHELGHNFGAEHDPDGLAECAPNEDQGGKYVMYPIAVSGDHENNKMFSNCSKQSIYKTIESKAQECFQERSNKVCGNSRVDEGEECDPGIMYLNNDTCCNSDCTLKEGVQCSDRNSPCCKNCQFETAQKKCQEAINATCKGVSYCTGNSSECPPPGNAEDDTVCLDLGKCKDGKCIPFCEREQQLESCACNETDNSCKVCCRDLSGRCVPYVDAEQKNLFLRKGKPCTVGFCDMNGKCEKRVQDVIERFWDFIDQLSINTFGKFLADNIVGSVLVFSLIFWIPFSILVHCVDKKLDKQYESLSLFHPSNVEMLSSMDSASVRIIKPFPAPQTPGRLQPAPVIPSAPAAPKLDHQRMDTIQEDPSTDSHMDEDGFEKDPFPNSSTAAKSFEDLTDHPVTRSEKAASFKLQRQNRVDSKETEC

SMILES strings stand for the structures. The list shows a part of the results, in another mix than the full data. Calls of active or inactive are those of the source.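 The calls were made as follows: active = inhibition above the mean of compounds lying between control limits plus 3 SD, set per campaign (cut at about 8.5% in these data); inactive = the rest.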

For this assay, the target named is Disintegrin and metalloproteinase domain-containing protein 17 (Homo sapiens) (UniProt P78536). In words: inhibition of ADAM17 peptide cleavage – biochemical, QFRET, primary screen (AID 720648).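 Also: 0% = DMSO-only wells as the low control.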 The settings on record: recombinant ADAM17, EDANS/DABCYL FRET peptide cleavage; at 6.95 µM; active compounds read high.
For `ClCCSc1nnc(-c2cccnc2)o1`, the inhibition (commonly the relative decrease from the control value, in per cent) was inactive: -3.71%. In the case of `CC(C)c1ccc(OP(=O)(Nc2ccccn2)Oc2ccccc2F)cc1` (centres undefined) it was inactive: -4.08%. In the case of `COC(=O)C1(C)COP(=O)(N2CCCCCC2)OC1` (centres undefined) it was inactive: -2.87%. As to `CCN(CC)C(=S)SC(NC=O)C(Cl)(Cl)Cl` (centres undefined), the inhibition is inactive: -2.23%. Under `O=C(OC1CN2CCC1CC2)c1cccc2[nH]cnc12` (centres undefined) stands inactive: -13.2%; under `CC(C)NC(=O)NP(=O)(Oc1ccccc1)Oc1ccccc1`, inactive: -3.82%. Under `C[As](=O)(O)c1cccc(C(=O)O)c1` stands inactive: -0.18%; under `O=[As](O)(c1ccc(O)cc1)c1ccccc1O`, inactive: -3.86%. In the case of `COc1cc(C(=O)NCC2(N3CCOCC3)CCCCC2)ccc1OCC(C)C`, the inhibition is inactive: -4.17%. As to `O=[N+]([O-])c1ccc(-c2cc([N+](=O)[O-])c(O)c([N+](=O)[O-])c2)cc1`, the inhibition was inactive: 3.14%. Under `[N-]=[N+]=NC1CCCCC1NC(=O)c1cc([N+](=O)[O-])cc([N+](=O)[O-])c1` (centres undefined) stands inactive: -1.97%; under `Cc1ccc(OP(=O)(Nc2ccc([N+](=O)[O-])cn2)Oc2ccc(C)cc2)cc1`, inactive: -2.49%; under `Cc1ccc2nc3c(c(C)c2c1)CC(C(Cl)Cl)S3` (centres undefined), inactive: -5.95%. In the case of `O=[N+]([O-])c1cc(Oc2ccc([N+](=O)[O-])cc2C(F)(F)F)cc([N+](=O)[O-])c1` it was inactive: -0.8%; in that of `COc1ccc(N/C(=N/P(=O)(N2CCOCC2)N2CCOCC2)N2CCOCC2)cc1`, inactive: -6.35%. Under `Cc1c2c(nc3ccccc13)SC(C(Cl)Cl)C2` (centres undefined) stands inactive: -0.72%; under `O=C(OC1CN2CCC1CC2)C12CC3CC(CC(C3)C1)C2` (centres undefined), inactive: 1.33%; under `Cc1cc(=O)[nH]c(N[N+](=O)[O-])n1`, inactive: -1.31%. In the case of `O=P1(N(CCCl)CCCl)OCCCN1CCCl` (centres undefined), the inhibition was inactive: -3.74%.

Turning to `O=P1(N(CCCl)CCCl)Nc2ccccc2N1`, the inhibition is inactive: -10.6%. Take `COc1ccc2nc(NP(=O)(c3ccccc3)c3ccccc3)sc2c1`: the inhibition is inactive: -1.42%. Under `COc1cc(I)ccc1[As](=O)(O)O` stands inactive: -0.64%; under `O=C(OC1CN2CCC1CC2)c1cccc([N+](=O)[O-])c1` (centres undefined), inactive: -6.09%. Under `CCOC(=O)c1ccc(NC(=O)C(C)(CCl)SC)cc1` (centres undefined) stands inactive: -2.98%. On to `CCC(C)N(CC(C)C)C(=S)SC(NC(C)=O)C(Cl)(Cl)Cl` (centres undefined), for which the inhibition is inactive: -6.73%.

Turning to `COP1(=S)c2c(C)nn(CCC#N)c2N=C(c2ccc(F)cc2)N1C` (centres undefined), the inhibition is inactive: 0.44%.

Consider `COC(=O)C1(C)COP(=O)(N2CCCC2)OC1` (centres undefined), for which the inhibition was inactive: 2.35%. `O=C(O)C(=O)c1ccc(N(CCCl)CCCl)cc1`: the inhibition was inactive: -2.3%.

In the case of `O=C(COc1ccccc1)OC1CN2CCC1CC2` (centres undefined), the inhibition was inactive: -2.66%. For the compound `O=C(Nc1ccncc1[N+](=O)[O-])c1ccc([N+](=O)[O-])cc1[N+](=O)[O-]`, the inhibition was inactive: -3.97%. `CCOC(=O)Nc1cccc([As](=O)(O)O)c1`: the inhibition is inactive: -2.43%. In the case of `O=P(Nc1ccccn1)(c1cccc2ccccc12)c1cccc2ccccc12` it was inactive: -6.23%; in that of `Cc1cc(SC(NC=O)C(Cl)(Cl)Cl)ncn1` (centres undefined), inactive: -3.02%; in that of `O=[N+]([O-])c1ccc(Nc2ccc(Oc3ccc([N+](=O)[O-])cc3[N+](=O)[O-])cc2)c([N+](=O)[O-])c1`, inactive: -1.31%. In the case of `CCOC(=O)Nc1ccc([As](=O)(O)O)c(O)c1` it was inactive: -2.33%; in that of `O=C(O)C(O)c1ccc(N(CCCl)CCCl)cc1` (centres undefined), inactive: -2.74%; in that of `CC1CCNP(=O)(N(CCCl)CCCl)O1` (centres undefined), inactive: 5.53%. Under `COP(=O)(OC)N1CC1c1ccccc1` (centres undefined) stands inactive: 0.98%; under `CCCCOc1ccc(C(=O)NCC2(N3CCCCC3)CCCCC2)cc1OC`, inactive: -0.01%; under `Cc1cc(SC(NC(=O)c2ccccc2)C(Cl)(Cl)Cl)nc(C(C)C)n1` (centres undefined), inactive: 0.86%.

With `Cc1ccc(S(=O)(=O)N(CCCN)CCCc2c(C)nc(N)[nH]c2=O)cc1`, the inhibition was inactive: 0.81%. As for `O=P1(Nc2ncccn2)COc2ccccc2OC1`, the inhibition is inactive: -1.66%.

On to `Nc1cccc([As](=O)(O)c2ccccc2)c1`, for which the inhibition was inactive: 1.19%. Turning to `O=P1(Nc2ccc(Br)cn2)COc2ccccc2OC1`, the inhibition is inactive: -0.26%. Under `NS(=O)(=O)c1cccc(NC(=O)COC(=O)C(O)(c2ccccc2)c2ccccc2)c1` stands inactive: 2.79%; under `Cc1ccc(OCC(=O)OC2CN3CCC2CC3)cc1` (centres undefined), inactive: -3.01%. Under `O=[As](O)(c1cccs1)c1cccs1` stands inactive: -8.35%; under `Cc1nn(-c2ccccc2)c2c1P(=O)(N1CCOCC1)N(C)C(c1ccccc1)=N2` (centres undefined), inactive: -1.54%; under `CC1CCC(C(C)C)C(OP(=O)(Nc2ccccn2)c2ccccc2)C1` (centres undefined), inactive: 1.17%. On to `Cc1ccc(C(=O)OC2CN3CCC2CC3)cc1` (centres undefined), for which the inhibition is inactive: -0.78%. In the case of `CN(C)C1(CNC(=O)c2ccc(S(C)(=O)=O)cc2)CCCCC1` it was inactive: -5.5%; in that of `O=C(/C=C/c1ccccc1)OC1CN2CCC1CC2` (centres undefined), inactive: 0.92%.

Regarding `CCCC1OP(=O)(Nc2ccccc2)OCC1CC` (centres undefined), the inhibition was inactive: -2.24%. On to `COc1ccccc1CNC(=O)COC(=O)C(O)(c1ccccc1)c1ccccc1`, for which the inhibition is inactive: 0.81%. For the compound `CC(C)/C=N\N=C(\N)N[N+](=O)[O-]`, the inhibition was inactive: -2.38%. In the case of `CN(C(=O)Cc1ccc(Cl)c(Cl)c1)[C@@H]1CCCC[C@H]1N1CCCC1` it was inactive: -5.7%. Consider `CN(C(=O)Cc1ccc(Cl)c(Cl)c1)C1CCCC[C@@H]1N1CCCC1` (some centres undefined), for which the inhibition is inactive: -0.63%. In the case of `CC1(CBr)Cn2c(nc3ccccc3c2=O)S1` (centres undefined) it was inactive: -4.16%; in that of `O=P1(Nc2ccccn2)COc2ccccc2OC1`, inactive: -3.27%; in that of `CCC1=CC2Cc3nc4ccc(Cl)cc4c(N)c3C(C1)C2` (centres undefined), inactive: -6.83%.

As for `CCOP(=O)(NC(=NC(C)c1ccccc1)NC(C)c1ccccc1)OCC` (centres undefined), the inhibition is inactive: -1.72%. In the case of `CN(CCCl)Cc1cc(Cl)c(NC2=NCCN2)c(Cl)c1` it was inactive: -3.98%.

`CCOP(=O)(Nc1ccc(C)cn1)OCC`: the inhibition is inactive: -3.84%.

As to `O=P1(N(CCCl)CCCl)NCCC(C(F)(F)F)O1` (centres undefined), the inhibition was inactive: 0.91%. Under `Clc1n[nH]nc1-c1nn[nH][15n]1` stands inactive: -3.93%; under `CC(C)(C)C(=O)NC(Sc1ncccn1)C(Cl)(Cl)Cl` (centres undefined), inactive: -6.83%.

Consider `Cc1ccc(NCCc2c([N+](=O)[O-])cc([N+](=O)[O-])cc2[N+](=O)[O-])cc1`, for which the inhibition was inactive: 3.57%.

For `Nc1cccc2c([As](=O)(O)O)cccc12`, the inhibition was inactive: -14.3%. On to `CCCOP(=S)(Nc1nc(N)cc(=O)[nH]1)OCCC`, for which the inhibition was inactive: 1.25%. Under `COc1cc(C2NCCC3(OCCO3)C2(C)C)cc(OC)c1OC` (centres undefined) stands inactive: -3.85%; under `CCOP(=O)(Nc1cccc2ccccc12)OCC`, inactive: -3.03%. Under `O=C(OC1CN2CCC1CC2)c1ccc(Cl)cc1` (centres undefined) stands inactive: -4.73%; under `COc1cc(C(=O)NCC2(N3CCOCC3)CCCCC2)cc(Cl)c1OC(C)C`, inactive: -5.56%. In the case of `O=[As](O)(O)c1cccnc1` it was inactive: -2.71%; in that of `CS(=O)(=O)c1ccc(Cl)c(NC(=O)COC(=O)C(O)(c2ccccc2)c2ccccc2)c1`, inactive: 1.05%.

In the case of `O=[As](O)(c1cccc(O)c1)c1cccc(O)c1`, the inhibition is inactive: -4.16%. In the case of `Cc1cccc(OCC(=O)OC2CN3CCC2CC3)c1` (centres undefined) it was inactive: 1.17%. `NC(=O)Nc1ccc([As](=O)(O)O)cc1`: the inhibition was inactive: -2.52%. Under `N#CCCN(C(=O)COC(=O)C(O)(c1ccccc1)c1ccccc1)c1ccc(F)cc1` stands inactive: -0.87%. Under `CN(C(=O)Cc1ccccc1)[C@@H]1CC[C@]2(CCCO2)C[C@H]1N1CCCC1` stands inactive: -5.5%; under `CCOP1(=S)c2c(C)nn(CCC#N)c2N=C(c2ccc(F)cc2)N1C` (centres undefined), inactive: 1.35%.

Turning to `CN(C)C(=O)c1cc([N+](=O)[O-])cc2c1-c1c(cc([N+](=O)[O-])cc1[N+](=O)[O-])C2=O`, the inhibition was inactive: -1.59%.

As for `O=[N+]([O-])c1ccc2c(c1)nnn2O`, the inhibition was inactive: -5.37%. Under `CN(C(=O)Cc1ccc(Cl)c(Cl)c1)[C@H]1CC[C@@]2(CCCO2)C[C@@H]1N1CCCC1` stands inactive: -4.72%; under `CCOP1(=S)c2c(C)nn(CCC#N)c2N=C(c2ccccc2F)N1C` (centres undefined), inactive: -1.66%; under `O=P(Nc1nccs1)(Oc1ccccc1)Oc1ccccc1`, inactive: -1.29%. As to `Nc1ccccc1[As](=O)(O)c1ccccc1`, the inhibition is inactive: -4.03%. In the case of `O=C(O)COc1ccc([As](=O)(O)O)cc1[N+](=O)[O-]` it was inactive: -0.04%; in that of `O=C(OC1CN2CCC1CC2)c1ccccc1` (centres undefined), inactive: -6.43%; in that of `CCC(=O)N1C2C3N(C(=O)CC)C1C1N(C(=O)CC)C(C(N1C(=O)CC)N3C(=O)CC)N2C(=O)CC`, inactive: -0.02%.

Consider `COC(=O)c1cc2c(s1)N=C(c1ccccc1)N(C)P2(=O)N1CCOCC1` (centres undefined), for which the inhibition was inactive: 0.45%. In the case of `CC(=O)NC(SC(=S)N(CC(C)C)CC(C)C)C(Cl)(Cl)Cl` (centres undefined), the inhibition is inactive: -1.53%.

With `Cc1ccc(OP(=O)(Nc2ccccn2)Oc2ccc(C)cc2)cc1`, the inhibition was inactive: 3.3%. With `Cc1ccccc1OP(=O)(Nc1ccccn1)Oc1ccccc1C`, the inhibition was inactive: -8.23%. `CC(NC(=O)COC(=O)C(O)(c1ccccc1)c1ccccc1)c1ccccc1` (centres undefined): the inhibition is inactive: 0.98%. With `CN(C)C(=O)Oc1noc2ccccc12`, the inhibition was inactive: -0.83%. In the case of `O=c1c2cc([N+](=O)[O-])ccc2[nH]c2c([N+](=O)[O-])cc([N+](=O)[O-])cc12` it was inactive: -2.14%; in that of `c1ccc(-c2nn[nH]n2)c(-c2nn[nH]n2)c1`, inactive: 1.41%.

As to `Cc1ccc(NP(=O)(Oc2cccc(C)c2)Oc2cccc(C)c2)nc1`, the inhibition is inactive: -0.59%.
